## Fraction unbound values, as collected for the OPERA models

Values as listed in the OPERA 2.9 repository of K. Mansouri.

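These are experimental values that the OPERA curators gathered from public databases to train and test their QSAR models. One number stands for a compound and property, with no spread given. Method and conditions are not stated for these values. A value may pool stereoisomers or salt forms, and the file does not say which form was measured. Some upstream entries may be estimates or bounds without being marked so.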

The unbound fraction in human plasma runs from 0 (all bound) to 1 (all free).

{"smiles": "CO[C@H]1C=CO[C@@]2(C)Oc3c(C)c(O)c4c(O)c(c(/C=N/N5CCN(C6CCCC6)CC5)c(O)c4c3C2=O)NC(=O)C(C)=CC=C[C@H](C)[C@H](O)[C@@H](C)[C@@H](O)[C@@H](C)[C@H](OC(C)=O)[C@@H]1C", "fu": "0.05367"}
{"smiles": "CCC1=C[C@@H]2C[N@](C1)Cc1c([nH]c3ccccc13)[C@@](C(=O)OC)(c1cc3c(cc1OC)N(C)[C@H]1[C@@](O)(C(=O)OC)[C@H](OC(C)=O)[C@]4(CC)C=CCN5CC[C@]31[C@@H]54)C2", "fu": "0.69"}
{"smiles": "C=CC1CS[C@@H]2[C@H](NC(=O)/C(=NO)/c3c[s]c(N)[n]3)C(=O)N2C=1C(O)=O", "fu": "0.35"}
{"smiles": "N#Cc1cc(-c2n[nH]c(-c3ccncc3)n2)ccn1", "fu": "0.151"}
{"smiles": "CCOC(=O)[C@H](CCc1ccccc1)N[C@H]1CCc2ccccc2N(CC(=O)O)C1=O", "fu": "0.04045"}
{"smiles": "NC(=O)N1c2ccccc2CC(=O)c2ccccc21", "fu": "0.55"}
{"smiles": "O=c1cc(O)c2c(=O)n(-c3ccccc3)c3ccccc3c2o1", "fu": "0.0183"}
{"smiles": "CC1=C(C)S(=O)(=O)CCS1(=O)=O", "fu": "0.937"}
{"smiles": "COc1cc(NS(C)(=O)=O)ccc1Nc1c2ccccc2nc2ccccc12", "fu": "0.02675"}
{"smiles": "CN(C)c1nc(N(C)C)nc(N(C)C)n1", "fu": "0.06"}
{"smiles": "CCOC(=O)[C@H](CCc1ccccc1)N[C@@H](C)C(=O)N1C(=O)N(C)C[C@H]1C(=O)O", "fu": "0.8"}
{"smiles": "C/C(/C[C@@H]1OC[C@H](C[C@@H]2O[C@H]2[C@@H](C)[C@H](C)O)[C@@H](O)[C@H]1O)=CC(=O)OCCCCCCCCC(O)=O", "fu": "0.04"}
{"smiles": "CCC(=O)O[C@]1(C(=O)SCF)[C@H](C)C[C@H]2[C@@H]3C[C@H](F)C4=CC(=O)C=C[C@]4(C)[C@@]3(F)[C@@H](O)C[C@@]21C", "fu": "0.04478"}
{"smiles": "Cc1cc(CC(=O)O)n(C)c1C(=O)c1ccc(Cl)cc1", "fu": "0.0175"}
{"smiles": "CN(C)[C@@H]1C(O)=C(C(=O)NCN[C@@H](CCCCN)C(=O)O)C(=O)[C@@]2(O)C(O)=C3C(=O)c4c(O)cccc4[C@@](C)(O)C3C[C@@H]12", "stereo": "stereo partly drawn", "fu": "0.55"}
{"smiles": "CN[C@@H]1[C@@H](O)[C@@H](O[C@@H]2[C@@H](O)[C@H](O[C@H]3O[C@H](CN)[C@@H](O)[C@H](O)[C@H]3O)[C@@H](N)C[C@H]2NC(=O)C(O)CN)OC[C@]1(C)O", "stereo": "stereo partly drawn", "fu": "0.95"}
{"smiles": "CCc1ccc(O)c(C(C)(C)C)c1", "fu": "0.0454"}
{"smiles": "NC(=O)N1c2ccccc2CC(O)c2ccccc21", "stereo": "stereo unspecified", "fu": "0.3775"}
{"smiles": "CCCCOC(=O)[C@@H](C)Oc1ccc(Oc2ccc(C(F)(F)F)cn2)cc1", "fu": "0.003283"}
{"smiles": "CC(C)C[C@H](NC(=O)[C@@H](COC(C)(C)C)NC(=O)[C@H](Cc1ccc(O)cc1)NC(=O)[C@H](CO)NC(=O)[C@H](Cc1c[nH]c2ccccc12)NC(=O)[C@H](Cc1c[nH]cn1)NC(=O)[C@@H]1CCC(=O)N1)C(=O)N[C@@H](CCCNC(=N)N)C(=O)N1CCC[C@H]1C(=O)NNC(N)=O", "fu": "0.8"}
{"smiles": "COc1cc2c3cc1Oc1cc(ccc1O)C[C@@H]1c4c(cc(OC)c(O)c4Oc4ccc(cc4)C[C@@H]3N(C)CC2)CC[N+]1(C)C.Cl.[Cl-]", "fu": "0.5733"}
{"smiles": "CC(C)(C)NC[C@H](O)COc1ccccc1C1CCCC1", "fu": "0.05"}
{"smiles": "C=CC[N+]1([C@H]2C[C@H]3[C@@H]4CC[C@H]5C[C@H](O)[C@@H](N6CCOCC6)C[C@]5(C)[C@H]4CC[C@]3(C)[C@H]2OC(C)=O)CCCC1", "fu": "0.58"}
{"smiles": "C[C@@H](Oc1ccc(cc1)Oc1[n]cc(Cl)cc1F)C(=O)OCC#C", "fu": "0.0148"}
{"smiles": "CC1CS[C@@H]2[C@H](NC(=O)/C(=NOC)/c3c[s]c(N)[n]3)C(=O)N2C=1C(O)=O", "fu": "0.78"}
{"smiles": "CCOC(=O)C1=C[C@]2(CC)CCCN3CCc4c(n1c1ccccc41)[C@@H]32", "fu": "0.34"}
{"smiles": "C#C[C@]1(O)CC[C@H]2[C@@H]3CCc4cc(O)ccc4[C@H]3CC[C@@]21C", "fu": "0.018"}
{"smiles": "CCNC(=O)[C@@H]1CCCN1C(=O)[C@H](CCCNC(=N)N)NC(=O)[C@H](CC(C)C)NC(=O)[C@@H](CC(C)C)NC(=O)[C@H](Cc1ccc(O)cc1)NC(=O)[C@H](CO)NC(=O)[C@H](Cc1c[nH]c2ccccc12)NC(=O)[C@H](Cc1c[nH]cn1)NC(=O)[C@@H]1CCC(=O)N1", "fu": "0.54"}
{"smiles": "CN(C)N=Nc1nc[nH]c1C(N)=O", "fu": "0.9883"}
{"smiles": "CCCN(CC)C(CC)C(=O)Nc1c(C)cccc1C", "stereo": "stereo unspecified", "fu": "0.06"}
{"smiles": "COc1ccc2ncc(=O)n(CCN3CC[C@@H](NCc4ccc5c(n4)NC(=O)CO5)[C@H](OC)C3)c2c1", "fu": "0.2242"}
{"smiles": "O=C(Nc1nn[nH]n1)c1cc(Oc2ccccc2)c2ccccn2c1=O", "fu": "0.0191"}
{"smiles": "CCN(CC)CCCN(c1ccccc1)C1Cc2ccccc2C1", "fu": "0.05"}
{"smiles": "N=c1n[n+]([O-])c2ccccc2n1O", "fu": "0.81"}
{"smiles": "Cc1[nH]nc2c1N=C(c1ccccc1Cl)c1cc([N+](=O)[O-])ccc1N2", "fu": "0.0135"}
{"smiles": "Oc1cc2ccccc2c2ccccc12", "fu": "0.005435"}
{"smiles": "CC(C)[C@H](N)C(=O)OCCOCn1cnc2c(=O)[nH]c(N)nc21", "fu": "0.82"}
{"smiles": "CN(C)CCOC1=Cc2ccccc2Sc2ccc(Cl)cc21", "fu": "0.03"}

A selection of 5 entries from above:

{"smiles": "N#Cc1cc(-c2n[nH]c(-c3ccncc3)n2)ccn1", "fu": "0.151"}
{"smiles": "CC(C)[C@H](N)C(=O)OCCOCn1cnc2c(=O)[nH]c(N)nc21", "fu": "0.82"}
{"smiles": "Cc1cc(CC(=O)O)n(C)c1C(=O)c1ccc(Cl)cc1", "fu": "0.0175"}
{"smiles": "NC(=O)N1c2ccccc2CC(=O)c2ccccc21", "fu": "0.55"}
{"smiles": "Oc1cc2ccccc2c2ccccc12", "fu": "0.005435"}